Laboratory results from patent US8975281B2, “Neosaxitoxin combination formulations for prolonged local anesthesia” (dated 2015).

Assays:
sciatic nerve [1] = assay: Rat sciatic nerve blockade, extensor postural thrust (motor-proprioceptive)
sciatic nerve [2] = assay: Rat sciatic nerve blockade, hotplate testing (thermal sensory-nocifensive)
sciatic nerve [3] = conditions: 0.3 ml of bupivacaine 2.5 mg/ml; cutoffs 7 s thermal latency, 40 g EPT; cited from earlier work
[4] = bupivacaine alone, n = 20, median (IQR)

CCCCN1CCCCC1C(=O)Nc1c(C)cccc1C (centres unmarked)
Median time to 100% recovery, EPT testing (sciatic nerve [1]; 0.25% bupivacaine alone): 2.2 h
Time to 50% recovery of injected limb, Extensor Postural Thrust (sciatic nerve [1]; [4]): 2.01 (1.51-2.39) hours
Median time to 100% recovery, hotplate testing (sciatic nerve [2]; 0.25% bupivacaine alone): 2.2 h
Time to 50% recovery of injected limb, Hotplate (sciatic nerve [2]; [4]): 1.5 (1.49-2.13) hours
Animals with complete block in previous studies (sciatic nerve [3]): > 98%
